Results on 6 compounds are retold here after PubChem BioAssay (EPA / NIEHS).

In general, AC50 refers to the midpoint of the concentration-response curve, whichever way the signal moves.

Assay [1] can be described thus: Tanguay_ZF_120hpf_EYE_legacy: (Legacy) Oregon State University Tanguay Lab 120 Hour Post-fertilization zebrafish Assay for Eye Malformation (AID 2283636).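 Also: binary presence or absence of eye malformation scored by brightfield in 120 hpf larvae.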 In a few lines:
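Static waterborne exposure of dechorionated zebrafish embryos (strain Tropical 5D), 6 to 120 hpf, sealed plates at 28C, 0.64% DMSO vehicle. Eye malformation is scored as a binary endpoint, with gain of signal analysed relative to DMSO.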

A short description of assay [2]: Tanguay_ZF_120hpf_SNOU_legacy: (Legacy) Oregon State University Tanguay Lab 120 Hour Post-fertilization zebrafish Assay for Snout Malformation (AID 2283637). In a few lines:
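Dechorionated zebrafish, individually housed from 6 hpf in covered, sealed wells at 28C with 0.64% DMSO vehicle, were examined at 120 hpf for snout malformation. Responses were binary and analysed positive-direction relative to DMSO.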

The nature of assay [3]: Tanguay_ZF_120hpf_JAW_legacy: (Legacy) Oregon State University Tanguay Lab 120 Hour Post-fertilization zebrafish Assay for Jaw Malformation (AID 2283638). In a few lines: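 Wild-type 5D embryos, chorion removed at 4 hpf, dosed singly from 6 hpf; 28C static, sealed, foil-covered, to 120 hpf. Endpoint: jaw defect yes/no (brightfield); mortality excludes scoring.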
Assay [4] is described as follows: Tanguay_ZF_120hpf_OTIC_legacy: (Legacy) Oregon State University Tanguay Lab 120 Hour Post-fertilization zebrafish Assay for Otic Vesicle Malformation (AID 2283639). A digest of the protocol: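 Binary scoring of otic vesicle defects at 120 hpf in zebrafish (Tropical 5D) held under static exposure at 28C, sealed and shaded, with final DMSO 0.64%. Embryos dying by 24 or 120 hpf excluded; fitted positively against DMSO.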

A short description of assay [5]: Tanguay_ZF_120hpf_PE_legacy: (Legacy) Oregon State University Tanguay Lab 120 Hour Post-fertilization zebrafish Assay for Pericardial Edema (AID 2283640). A digest of the protocol:
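Zebrafish larvae are exposed from early development to 120 hpf at 28C, with 0.64% DMSO final. Each surviving larva receives a yes/no pericardial edema call by brightfield imaging, analysed relative to the DMSO baseline.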

A short description of assay [6]: Tanguay_ZF_120hpf_BRAI_legacy: (Legacy) Oregon State University Tanguay Lab 120 Hour Post-fertilization zebrafish Assay for Brain Malformation (AID 2283641). In a few lines:
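Static exposure of staged wild-type embryos until 120 hpf, kept at 28C with light excluded and final DMSO of 0.64% (vol/vol). Presence or absence of brain malformation was noted under brightfield; mortality precluded scoring.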

Assay [7] is described as follows: Tanguay_ZF_120hpf_SOMI_legacy: (Legacy) Oregon State University Tanguay Lab 120 Hour Post-fertilization zebrafish Assay for Somite Malformation (AID 2283647). A digest of the protocol:
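Somitogenesis defects are recorded as binary calls in whole larvae at 120 hpf after continuous static chemical exposure starting at 6 hpf in dechorionated 5D embryos. DMSO serves as negative control and baseline.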

Assay [8] can be described thus: Tanguay_ZF_120hpf_PFIN_legacy: (Legacy) Oregon State University Tanguay Lab 120 Hour Post-fertilization zebrafish Assay for Pectoral Fin Malformation (AID 2283648).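 Also: each larva judged yes or no for fin defect by brightfield with dead larvae skipped.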 In a few lines: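 Scoring of pectoral fin malformation was binary, made at 120 hpf on larvae exposed statically from 6 hpf after enzymatic chorion removal. Activity was fitted upward relative to DMSO controls at 0.64% (vol/vol).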

Assay [9] is described as follows: Tanguay_ZF_120hpf_CFIN_legacy: (Legacy) Oregon State University Tanguay Lab 120 Hour Post-fertilization zebrafish Assay for Caudal Fin Malformation (AID 2283649). A digest of the protocol:
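Single dechorionated 5D wild-type embryos are dosed at 6 hpf (final DMSO 0.64%) and held statically at 28C. Caudal fin malformation is recorded as present or absent at 120 hpf under brightfield, excluding dead embryos.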

A short description of assay [10]: Tanguay_ZF_120hpf_PIG_legacy: (Legacy) Oregon State University Tanguay Lab 120 Hour Post-fertilization zebrafish Assay for Pigmentation Malformation (AID 2283650). A digest of the protocol:
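Endpoint is incidence of abnormal pigmentation at 120 hpf in dechorionated 5D zebrafish exposed singly from 6 hpf at 28C, DMSO vehicle at 0.64%. Embryos dying by 24 or 120 hpf are excluded from scoring.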

Assay [11] is described as follows: Tanguay_ZF_120hpf_CIRC_legacy: (Legacy) Oregon State University Tanguay Lab 120 Hour Post-fertilization zebrafish Assay for Circulatory Malformation (AID 2283651). A digest of the protocol: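 Binary circulatory malformation call at 120 hpf by brightfield imaging of zebrafish larvae; chorion removed at 4 hpf, static exposure from 6 hpf in sealed dark plates at 28C, final DMSO 0.64%; non-mortality endpoints skipped if embryo died.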

Assay [12] in a line: Tanguay_ZF_120hpf_SWIM_legacy: (Legacy) Oregon State University Tanguay Lab 120 Hour Post-fertilization zebrafish Assay for Swim Bladder Malformation (AID 2283654).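 Also: swim bladder malformation in each larva scored yes or no under brightfield.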 A digest of the protocol:
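Static waterborne exposure of single dechorionated Tropical 5D zebrafish embryos, 6–120 hpf, 28C, 0.64% DMSO final. Read-out: swim bladder malformation, present/absent, relative to DMSO negative control; trimethyltin chloride 5uM served as positive control.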

Assay [13] in a line: Tanguay_ZF_120hpf_TR_legacy: (Legacy) Oregon State University Tanguay Lab 120 Hour Post-fertilization zebrafish Assay for Touch Response (AID 2283667). In a few lines:
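Readout is presence or absence of touch response in 120 hpf zebrafish larvae, assessed by brightfield observation after continuous static exposure at 28C. Final vehicle was 0.64% (vol/vol) DMSO.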

Assay [14] in a line: CCTE_Padilla_ZF_144hpf_TERATOSCORE: (Legacy) CCTE's 144 Hour Post-fertilization zebrafish Assay Teratoscore, Padilla Lab (AID 2283679; active = hit-call score of the fitted dose curve at least 0.9, where 1 is the maximum; inactive = score below 0.9;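 as to AC50: zebrafish embryos with chorions exposed by immersion from 6-8 hpf to 5 dpf with daily renewal; teratogenicity score from eye scoring of death hatching and malformations at 144 hpf; higher score means more developmental defects relative to DMSO baseline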). In a few lines:
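Larvae scored by eye at 144 hpf for death, hatching and malformations after a day in clean Hanks'. Before that, daily-renewed exposure at 80 uM (0.4% DMSO, 26C) from roughly 6-8 hpf through 5 dpf, 4 embryos per chemical.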

Assay [15] is described as follows: STM_H9_OrnithineISnorm_perc: Stemina devTOX quickPredict H9 human embryonic stem cell (hESC)-based Assay for Ornithine (ORN) Metabolite Biomarker, Normalized (AID 2283712; active = hit-call score of the fitted dose curve at least 0.9, where 1 is the maximum; inactive = score below 0.9;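 also: ornithine released into spent medium during last day measured by mass spectrometry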). In a few lines:
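Ornithine in spent medium from the last 24 h of a 72 h exposure, deproteinised and quantified by UPLC-HRMS against an isotope-labelled internal standard, expressed relative to 0.1% DMSO. Pluripotent H9 cells; compound refreshed every 24 h.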

Assay [16] can be described thus: STM_H9_CystineISnorm_perc: Stemina devTOX quickPredict H9 human embryonic stem cell (hESC)-based Assay for Cystine (CYSS) Metabolite Biomarker, Normalized (AID 2283713; active = hit-call score of the fitted dose curve at least 0.9, where 1 is the maximum; inactive = score below 0.9). In a few lines: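 Cystine in spent media from the last 24 h of a 72 h H9 hESC exposure (daily re-dosing), measured by UPLC-HRMS. Values normalized to isotopic internal standard, then to 0.1% DMSO; viability via CellTiter-Fluor.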

Assay [17] in a line: STM_H9_OrnCyssISnorm_ratio: Stemina devTOX quickPredict H9 human embryonic stem cell (hESC)-based Assay for Ornithine (ORN):Cystine (CYSS) Ratio (AID 2283714). A digest of the protocol: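 H9 hESC, 72h, q24h re-dose; last-day media → acetonitrile deproteinization → UPLC-HRMS. ORN:CYSS ratio from isotope-normalized EIC areas, vs 0.1% DMSO; MTX references on each plate.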
Assay [18] is described as follows: Tanguay_ZF_120hpf_TRUN_legacy: (Legacy) Oregon State University Tanguay Lab 120 Hour Post-fertilization zebrafish Assay for Truncated Body (AID 2283655). A digest of the protocol:
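Single dechorionated zebrafish embryos received test chemical from 6 hpf in 0.64% DMSO, kept at 28C. At 120 hpf, brightfield inspection noted any truncated body.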

Assay [19] is described as follows: Tanguay_ZF_120hpf_NC_legacy: (Legacy) Oregon State University Tanguay Lab 120 Hour Post-fertilization zebrafish Assay for Notochord and Tail Malformation (AID 2283656). In a few lines: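 Binary scoring of notochord distortion by brightfield microscopy; embryos dying were not scored. Wild-type Tropical 5D embryos, chorion removed, exposed singly and statically from 6 to 120 hpf, 28C, sealed, 0.64% DMSO.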

The nature of assay [20]: CEETOX_H295R_MTT_cell_viability: Viability Assessment in the CeeTox HT-H295R MTT Assay (AID 2283718; active = hit-call score of the fitted dose curve at least 0.9, where 1 is the maximum; inactive = score below 0.9). A digest of the protocol: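 H295R cells prestimulated 48 h with 10 uM forskolin, then exposed 48 h to test chemical (0.1% DMSO final). Viability by MTT (0.5 mg/ml, 4 h, 37 C), absorbance 570/650 nm; percent change versus DMSO, bidirectional fit.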

SMILES strings stand for the structures. The entries are a selection whose mix differs from that of the whole data set. Inconclusive results are not listed. Calls of active or inactive are those of the source. The calls were made as follows, unless noted: active = hit-call score of the fitted dose curve at least 0.9, where 1 is the maximum; inconclusive = response in the unintended direction; inactive = score below 0.9.

`O=[N+]([O-])c1cccc([N+](=O)[O-])c1`: the result in [1], in assay [2], in assay [3], in assay [4], in [5] and in assay [6] was inactive. The call in [7], in assay [8], in [9], in assay [10], in assay [11] and in assay [12] was inactive. The result in assay [13] was inactive. The concentration at half-maximal activity (AC50) in assay [14] is active: 67.7 µM; in assay [15], active: 72.7 µM; in assay [16] it was active: 22.3 µM; in assay [17] it was active: 44.8 µM.
In the case of `CC(C)OP(C)(=O)OC(C)C`, the call in assay [1], in assay [2], in [3], in [4], in assay [5] and in [6] was inactive. The result in assay [7], in assay [9], in assay [10], in [11], in assay [12] and in [18] was inactive. The compound was classed as inactive in assay [19], in assay [13] and in [14].
For `Cc1cccc([N+](=O)[O-])c1[N+](=O)[O-]`, the call in assay [1], in [2], in [3], in [4], in assay [5] and in [6] was inactive. For the same compound, the result in assay [7], in [8], in assay [9], in assay [10], in [11] and in assay [12] was inactive. In addition, the compound was called inactive in assay [18], in assay [19], in [13] and in assay [20]. Further, the AC50 in assay [14] was active: 5.77 µM.
`Cc1ccc([N+](=O)[O-])c([N+](=O)[O-])c1`: the compound was called inactive in assay [20].
As for `Cc1ccc([N+](=O)[O-])cc1[N+](=O)[O-]`, the call in [1], in [2], in assay [3], in assay [4], in [5] and in assay [6] was inactive. In addition, the compound was called inactive in assay [7], in [8], in assay [9], in [10], in assay [11] and in assay [12]. For the same compound, the compound was called inactive in [18], in assay [19] and in assay [13]. Further, the AC50 in assay [15] is active: 86.4 µM; in assay [16], active: 64.8 µM; in assay [17] it was active: 68.9 µM.
As to `Cc1c([N+](=O)[O-])cccc1[N+](=O)[O-]`, the result in assay [1], in [2], in assay [5], in assay [6], in assay [7] and in [8] was inactive. Moreover, the outcome in assay [9], in assay [10], in assay [11], in assay [12], in [18] and in assay [19] was inactive. Moreover, the result in assay [13] and in assay [20] was inactive. Moreover, the AC50 in assay [14] was active: 53.2 µM.
